Results on three compounds are retold here after ChEMBL document CHEMBL5385906, “Discovery of a Potent, Selective, and Orally Bioavailable Tool Compound for Probing the Role of Lysophosphatidic Acid Type 2 Receptor Antagonists in Fibrotic Disorders” (J Med Chem, 2023).

The chains behind the UniProt entries cited, without tags or fusion partners.
UniProt Q9HBW0, whole entry: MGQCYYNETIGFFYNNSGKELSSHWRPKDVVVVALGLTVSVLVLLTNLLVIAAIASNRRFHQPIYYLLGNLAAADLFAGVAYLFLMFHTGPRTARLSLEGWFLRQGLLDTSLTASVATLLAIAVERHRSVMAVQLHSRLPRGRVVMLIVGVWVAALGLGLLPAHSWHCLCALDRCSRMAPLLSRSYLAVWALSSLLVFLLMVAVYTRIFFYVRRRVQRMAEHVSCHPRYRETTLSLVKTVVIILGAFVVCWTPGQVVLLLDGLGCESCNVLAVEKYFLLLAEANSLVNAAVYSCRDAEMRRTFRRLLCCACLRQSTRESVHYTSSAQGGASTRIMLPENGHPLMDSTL

pIC50: −log10 of the molar value.

The target of the test is Lysophosphatidic acid receptor 2 (Homo sapiens, UniProt Q9HBW0).
As a reminder, the pIC50 is −log10 of the IC50, conventionally taken in molar units. Read a high pIC50 as a small IC50. Compound `COC(=O)c1cccc2c(N[C@@H](C)CN3CCN(S(=O)(=O)c4ccc(Cl)c(Cl)c4)CC3)ncnc12` showed a negative-log IC50 (pIC50) of 6.89.
On to `COC(=O)Nc1nc(C)c(S(=O)(=O)N2CCN(C[C@H](C)Nc3ncnc4c(C(=O)N(C)C)cccc34)CC2)s1`, for which the pIC50 is 6.59.
Next, `COC(=O)Nc1nc(C)c(S(=O)(=O)N2CCN(C[C@H](C)Nc3ncnc4c(-c5ccc(CN6CCCC6)cc5)cccc34)CC2)s1`: 9.24.
